2 substances from patent US20150284674A1, “CAMPYLOBACTER BACTERIA AND DETECTION” (priority 2012, published 2015) can be followed below.

The test system of the assay is Campylobacter novel strains. The assay is described as follows: Antimicrobial susceptibility testing by agar dilution method (MIC).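 As to all read-outs here: agar dilution MIC on HBA, used in place of the BSAC-recommended Iso-sensitest agar, across a panel of 14 antimicrobials.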 The following applies: agar dilution on HBA; for Distribution (%) of MIC (μg/ml) 0.50: % of novel strains with MIC 0.50 μg/ml.

For the substance Polymyxin B, the “Distribution (%) of MIC (μg/ml) 0.50” value is recorded as 4.35%.
Regarding Gentamycin, the “Distribution (%) of MIC (μg/ml) 0.50” value was 95.65%. In addition, where the note is “% of novel strains with MIC 0.25 μg/ml”, the “Distribution (%) of MIC (μg/ml) 0.25” value worked out at 4.35%.
